{"sequences": {"note": "By UniProt entry, the sequences of proteins in these tests, tags left out. Residues count along the entry.", "UniProt O00187, 445-686": "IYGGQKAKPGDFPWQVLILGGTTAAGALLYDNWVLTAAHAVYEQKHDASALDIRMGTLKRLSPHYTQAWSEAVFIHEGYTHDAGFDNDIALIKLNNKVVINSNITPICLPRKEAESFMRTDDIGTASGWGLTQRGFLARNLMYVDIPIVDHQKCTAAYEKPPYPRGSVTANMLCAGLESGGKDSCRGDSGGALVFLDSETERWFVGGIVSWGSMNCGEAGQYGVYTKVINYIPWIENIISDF", "UniProt O00187, 298-444": "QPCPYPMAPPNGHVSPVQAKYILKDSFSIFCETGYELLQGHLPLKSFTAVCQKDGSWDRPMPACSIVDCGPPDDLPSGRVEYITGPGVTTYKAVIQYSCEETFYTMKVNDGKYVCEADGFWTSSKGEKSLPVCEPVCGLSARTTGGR"}, "source": "patent US20260193179A9", "about": "(priority 2018, published 2026)", "key": {"MASP-2 (CCP1-CCP2-SP) [1]": {"test_system": "MASP-2 (CCP1-CCP2-SP)", "assay": "Enzymatic Assay for MASP-2 (fluorogenic substrate)", "format": "biochemical, human", "details": "selectivity for MASP-2 inhibition versus thrombin"}, "MASP-2 (CCP1-CCP2-SP) [2]": {"target": "MASP-2 (CCP1-CCP2-SP) (Homo sapiens, UniProt O00187)", "assay": "Enzymatic Assay for MASP-2 (fluorogenic substrate)", "format": "biochemical"}}, "note": "Counter-ions that a name gives are not always drawn."}
{"smiles": "Cc1nc(N)ccc1CNC(=O)C(C)NC(=O)[C@H]1C[C@H](c2cccc(-c3ccccc3)c2)CN1", "note": "(stereo in doubt) [compound 1359, (2R,4R)-4-([1,1′-Biphenyl]-3-yl)-N—((S)-1-(((6-amino-2-methylpyridin-3-yl)methyl)amino)-1-oxopropan-2-yl)pyrrolidine-2-carboxamide Di-trifluoroacetate salt]", "values": [{"measurement": "MASP-2 vs. thrombin selectivity", "setting": "MASP-2 (CCP1-CCP2-SP) [1]", "result": "** (≥5.0 to <25-fold)"}, {"measurement": "Ki", "setting": "MASP-2 (CCP1-CCP2-SP) [2]", "result": "500 to 2500", "unit": "nM"}]}
